Sequences of proteins named here, by UniProt entry; tags and fusion partners are left off.
UniProt P21728, whole entry: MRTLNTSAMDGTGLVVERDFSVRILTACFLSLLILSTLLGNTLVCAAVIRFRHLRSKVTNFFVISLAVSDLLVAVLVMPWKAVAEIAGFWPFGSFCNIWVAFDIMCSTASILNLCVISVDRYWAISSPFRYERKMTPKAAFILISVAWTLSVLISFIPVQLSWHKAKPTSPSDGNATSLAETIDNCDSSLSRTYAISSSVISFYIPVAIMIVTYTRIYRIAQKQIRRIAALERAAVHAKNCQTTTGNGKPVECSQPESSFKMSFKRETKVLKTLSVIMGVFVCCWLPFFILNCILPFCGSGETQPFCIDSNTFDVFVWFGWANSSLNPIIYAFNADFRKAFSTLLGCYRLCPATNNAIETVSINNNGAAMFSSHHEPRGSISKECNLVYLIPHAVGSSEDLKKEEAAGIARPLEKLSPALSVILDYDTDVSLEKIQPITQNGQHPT

In ChEMBL document CHEMBL1129489 (J Med Chem, 1996):

What was measured:
D(1A) dopamine receptor [1] = target: T1, D(1A) dopamine receptor (Homo sapiens, UniProt P21728); assay: Equilibrium dissociation constant against recombinant Dopamine receptor D1A expressed in COS7 cells; type: cell-based, COS-7
D(1A) dopamine receptor [2] = target: T1, D(1A) dopamine receptor; conditions: COS-7

Row | SMILES | Kd (D(1A) dopamine receptor [1]) [µM] | Log 1/Kd (D(1A) dopamine receptor [2])
1 | CNC[C@H](O)c1ccc(O)c(O)c1 [EPINEPHRINE] | 55 | -4.74
2 | NCCc1c[nH]c2ccc(O)cc12 [SEROTONIN] | 9.69 | -3.99
